Experimental data taken from ChEMBL document CHEMBL3638956, “Tetrahydro-pyrazolo[1,5-a]pyrido-pyrimidines as antagonists of serotonin 5-HT6 receptors, methods for the production and use thereof” (2013).

Chains of the proteins cited; added tags and fusions are not shown.
UniProt P50406, whole entry: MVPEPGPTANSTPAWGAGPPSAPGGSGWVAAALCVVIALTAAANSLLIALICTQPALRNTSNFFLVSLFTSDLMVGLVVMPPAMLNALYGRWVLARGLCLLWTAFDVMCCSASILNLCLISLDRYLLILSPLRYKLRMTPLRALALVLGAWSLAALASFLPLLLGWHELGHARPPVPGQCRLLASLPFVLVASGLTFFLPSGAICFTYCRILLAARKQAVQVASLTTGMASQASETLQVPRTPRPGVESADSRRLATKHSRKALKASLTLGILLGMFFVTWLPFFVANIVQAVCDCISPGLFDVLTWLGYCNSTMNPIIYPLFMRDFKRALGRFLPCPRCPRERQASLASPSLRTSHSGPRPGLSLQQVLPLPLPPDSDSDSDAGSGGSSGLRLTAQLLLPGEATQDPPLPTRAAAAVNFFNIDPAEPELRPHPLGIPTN

Target: 5-hydroxytryptamine receptor 6 (Homo sapiens, UniProt P50406)
Test: Competitive Binding Assay: Activity test of serotonin 5-HT6 receptor antagonists of the general formulas 1, 2 in the setting of competitive binding to serotonin 5-HT6 receptors.

With `CSc1nn2c3c(c(C)nc2c1S(=O)(=O)c1cccc(Cl)c1)CNCC3` as the compound, how does the pIC50 read?
The pIC50 was 7.62.

What about the pKi of the same compound?
The pKi was 7.95.

pIC50, pKi: −log10 of the molar value.
